Experimental data published in patent publication US9504660B2, “Retinaldehyde mimetics and inhibitors of retinaldehyde dehydrogenase I in the treatment of disorders” (THE BRIGHAM AND WOMEN'S HOSPITAL, INC., priority 2012, dated 2016).

By UniProt entry, the sequences of proteins in these tests, tags left out. Residues count along the entry.
UniProt P10276, 183-417 limits assumed: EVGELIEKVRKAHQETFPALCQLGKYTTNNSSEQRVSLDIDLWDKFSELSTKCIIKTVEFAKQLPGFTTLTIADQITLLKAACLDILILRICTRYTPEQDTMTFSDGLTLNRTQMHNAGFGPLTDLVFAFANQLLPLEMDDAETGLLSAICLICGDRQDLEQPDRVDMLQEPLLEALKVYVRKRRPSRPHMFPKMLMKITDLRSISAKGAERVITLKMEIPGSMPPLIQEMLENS

Molecular target: T1, RARa ligand binding domain (LBD) (Homo sapiens, UniProt P10276)
T1 construct: purchased Invitrogen
Experiment: Cell-free TR-FRET assay, PGC-1a recruitment to RARa LBD
Type: biochemical
Protocol: Lanthascreen” TR-FRET RARa and RXR13 coactivator assays (Invitrogen) were performed as per manufacturer protocol using a PerkinElmer (Waltham, Mass.) EnVision™ fluorescence plate reader.

Structure (SMILES): CC1=C(/C=C/C(C)=C/C=C/C(C)=C/C(=O)O)C(C)(C)CCC1 [ATRA, all-trans RA, reference compound]
- PGC-1a recruitment to RARa: potently recruited
